## Experimental vapor pressure values from OPERA 2.9

From the experimental data distributed with OPERA 2.9.

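These are experimental values that the OPERA curators gathered from public databases to train and test their QSAR models. A listed value is a point estimate from one report or more. Method and conditions are not stated for these values. A value may pool stereoisomers or salt forms, and the file does not say which form was measured. Unmarked limits or estimates from the upstream databases cannot be ruled out.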

Vapor pressures (log10 mmHg) refer to near room temperature, 15 to 30 °C; higher is more volatile.
Cells with "–" have no entry in this list.
"via" names the databases from which the curators took the value.

SMILES,name,log VP (log10 mmHg),via
CC(=O)c1cccc(N)c1,3-Aminoacetophenone,-2.005,eChemPortal
CCCCCC(CCC)COC(=O)OCC(CCC)CCCCC (stereo unspecified),Bis(2-propylheptyl) carbonate,-5.569,eChemPortal
CCN(CC)CCNC(=O)c1cc(Cl)c(N)cc1OC,Metoclopramide,-8.337,OCHEM
O=C1CC[C@@H](C(=O)O)N1,Pidolic acid,-4.028,eChemPortal
CCCCN(CCCC)C(=O)c1ccc(C2=C3C(=O)NC(c4ccc(Cl)cc4)=C3C(=O)N2)cc1,–,-7.466,eChemPortal
O=C=NCCCCCCN=C=O,"1,6-Diisocyanatohexane",-2.28,eChemPortal
O=C1CCc2[nH]c3ccccc3c2C1,"1,2,4,9-Tetrahydro-3H-carbazol-3-one",-6.727,eChemPortal
c1ccc(C2=NCCN2)cc1,"1H-Imidazole, 4,5-dihydro-2-phenyl-",-3.424,eChemPortal
NS(=O)(=O)c1cc(C(=O)Cl)ccc1Cl,4-Chloro-3-sulfamoylbenzoyl chloride,-8.782,eChemPortal
CC(O)C(C)Cc1ccccc1 (stereo unspecified),3-Methyl-4-phenyl-2-butanol,-2.084,eChemPortal
Clc1cc(Cl)c(Oc2cc(Cl)c(Cl)c(Cl)c2Cl)c(Cl)c1,"2,2',3,4,4',5,6'-Heptachlorodiphenyl ether",-5.975,OCHEM
O=c1cccccc1O,Tropolone,-1.709,eChemPortal
CCCCCCCCCCC(CCCCCCCC)COC(=O)[C@@H]1CCC(=O)N1 (stereo partly drawn),2-Octyldodecyl 5-oxo-L-prolinate,-3.803,eChemPortal
C/C=C/C(=O)C1C(C)=CCCC1(C)C (stereo partly drawn),"(2E)-1-(2,6,6-Trimethyl-2-cyclohexen-1-yl)-2-buten-1-one",-1.62,eChemPortal
CC(O)Cn1ccnc1 (stereo unspecified),alpha-Methyl-1H-imidazole-1-ethanol,-2.894,eChemPortal
Cc1c(N)cccc1Cl,3-Chloro-2-methylaniline,-1.648,eChemPortal
CC(=O)OC[C@H]1O[C@H](OC(C)=O)[C@H](OC(C)=O)[C@@H](OC(C)=O)[C@@H]1OC(C)=O,alpha-D-Glucopyranosyl pentaacetate,-7.477,eChemPortal
COC(=O)OC1CCC=CCCC1 (stereo unspecified),Cyclooct-4-en-1-yl methyl carbonate,-1.521,eChemPortal
CCCC(C)C(=O)Nc1ccc(C)c(Cl)c1 (stereo unspecified),Pentanochlor,-5.648,OCHEM
NNc1ccc(Cl)cc1,4-Chlorophenylhydrazine,-3.378,eChemPortal
O=C1OC(=O)c2cc(S(=O)(=O)c3ccc4c(c3)C(=O)OC4=O)ccc21,"1,3-Isobenzofurandione, 5,5'-sulfonylbis-",-12.52,eChemPortal
CCCC(=O)OCc1ccccc1,Benzyl butyrate,-1.312,eChemPortal
CCCCCCCCCCCCCCCCN(C)C,"N,N-Dimethyl-1-hexadecanamine",-3.763,eChemPortal
Cc1ccc(S(=O)(=O)[O-])cc1.[Na+],Sodium 4-methylbenzenesulfonate,-10,eChemPortal
O=C(O)CCC1(CCC(=O)O)CCCC(CCC(=O)O)(CCC(=O)O)C1=O,"2-Oxocyclohexane-1,1,3,3-tetrapropionic acid",-6.011,eChemPortal
NNC(=O)c1cccc(C(=O)NN)c1,Isophthalyl dihydrazide,-9.639,eChemPortal
CC(=O)NC(Cc1c[nH]c2ccccc12)C(=O)O (stereo unspecified),Acetyltryptophan,-9.319,eChemPortal
Cl.Cn1sccc1=O,-Methyl-2H-isothiazol-3-one hydrochloride,-2.18,eChemPortal
CC(CCC(=O)[O-])C1CCC2C3C(O)CC4CC(O)CCC4(C)C3CC(O)C12C.[Na+] (stereo unspecified),Sodium cholate,-9.892,eChemPortal
NCCCCCCCCCCCCN,"1,12-Dodecanediamine",-3.659,eChemPortal
OCC(CO)(CBr)CBr,Pentaerythritol dibromide,-4.824,"OFMPub, eChemPortal"
Cc1cc(O)cc2c1O[C@](C)(CCC[C@H](C)CCC[C@H](C)CCCC(C)C)CC2,D-delta-Tocopherol,-7.923,eChemPortal
C=CN1CCN(C=C)C1=O,"2-Imidazolidinone, 1,3-diethenyl-",-2.404,eChemPortal
Clc1cc(Cl)c2c(Cl)c(Cl)c(Cl)c(Cl)c2c1Cl,"1,2,3,4,5,6,8-Heptachloronaphthalene",-5.735,OCHEM
FC1(F)C(F)(F)C(F)(F)C2(F)C(F)(F)C(F)(F)C(F)(F)C(F)(F)C2(F)C1(F)F (stereo unspecified),Perflunafene,0.82,eChemPortal
C/C=C/C(C)C.C=C,4-Methyl-2-pentene,2.316,OCHEM
CCN(CC)CC(C)O (stereo unspecified),"2-Propanol, 1-(diethylamino)-",0.672,eChemPortal

The 5 lowest values of log VP among the entries above:

SMILES,name,log VP (log10 mmHg),via
O=C1OC(=O)c2cc(S(=O)(=O)c3ccc4c(c3)C(=O)OC4=O)ccc21,"1,3-Isobenzofurandione, 5,5'-sulfonylbis-",-12.52,eChemPortal
Cc1ccc(S(=O)(=O)[O-])cc1.[Na+],Sodium 4-methylbenzenesulfonate,-10,eChemPortal
CC(CCC(=O)[O-])C1CCC2C3C(O)CC4CC(O)CCC4(C)C3CC(O)C12C.[Na+] (stereo unspecified),Sodium cholate,-9.892,eChemPortal
NNC(=O)c1cccc(C(=O)NN)c1,Isophthalyl dihydrazide,-9.639,eChemPortal
CC(=O)NC(Cc1c[nH]c2ccccc12)C(=O)O (stereo unspecified),Acetyltryptophan,-9.319,eChemPortal